Values of other authors, collected in patent US9239331B2, “Method for predicting the response to HER2-directed therapy” (Ventana Medical Systems, Inc., priority 2002, dated 2016).

How the values were obtained:
MKN7 cells = conditions: MKN7 erbB receptor-overexpressing carcinoma cell line; cited from earlier work
BT474 cells = conditions: BT474 erbB receptor-overexpressing carcinoma cell line; cited from earlier work

## trastuzumab [HERCEPTIN®]
MKN7 cells
  response of cells to HERCEPTIN®: do not
BT474 cells
  response of cells to HERCEPTIN®: respond
